These results are taken from ChEMBL document CHEMBL1150779, “Triazolopyrimidine-based dihydroorotate dehydrogenase inhibitors with potent and selective activity against the malaria parasite Plasmodium falciparum” (J Med Chem, 2008).

The experiment concerns the target T1, Dihydroorotate dehydrogenase (Plasmodium falciparum) (UniProt Q54A96).
T1 sequence (whole entry): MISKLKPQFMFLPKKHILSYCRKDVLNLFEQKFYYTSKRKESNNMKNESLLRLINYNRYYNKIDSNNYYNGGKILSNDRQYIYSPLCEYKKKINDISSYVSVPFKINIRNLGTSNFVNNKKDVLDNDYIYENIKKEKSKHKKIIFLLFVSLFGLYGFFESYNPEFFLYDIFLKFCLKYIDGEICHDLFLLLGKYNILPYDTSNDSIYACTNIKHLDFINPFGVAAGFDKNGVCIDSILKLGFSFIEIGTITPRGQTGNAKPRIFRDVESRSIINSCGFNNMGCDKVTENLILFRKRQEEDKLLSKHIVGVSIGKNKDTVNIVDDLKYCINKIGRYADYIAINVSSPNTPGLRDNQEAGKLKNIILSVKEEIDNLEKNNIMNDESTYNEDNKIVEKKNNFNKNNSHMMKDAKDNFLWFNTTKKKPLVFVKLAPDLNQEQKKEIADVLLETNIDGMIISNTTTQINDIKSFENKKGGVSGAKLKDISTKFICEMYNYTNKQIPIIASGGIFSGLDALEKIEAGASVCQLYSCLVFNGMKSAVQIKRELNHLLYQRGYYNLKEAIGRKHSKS

The compound `Cc1cc(Nc2ccc3ccccc3c2)n2ncnc2n1` returned a Kinact of 0.015 µM.
